Paper PMC9568543, “Bee-safe peptidomimetic acaricides achieved by comparative genomics” (Scientific Reports, 2022)

Sequences of proteins named here, by UniProt entry; tags and fusion partners are left off.
UniProt A0A7T1TE40, entry or part of it: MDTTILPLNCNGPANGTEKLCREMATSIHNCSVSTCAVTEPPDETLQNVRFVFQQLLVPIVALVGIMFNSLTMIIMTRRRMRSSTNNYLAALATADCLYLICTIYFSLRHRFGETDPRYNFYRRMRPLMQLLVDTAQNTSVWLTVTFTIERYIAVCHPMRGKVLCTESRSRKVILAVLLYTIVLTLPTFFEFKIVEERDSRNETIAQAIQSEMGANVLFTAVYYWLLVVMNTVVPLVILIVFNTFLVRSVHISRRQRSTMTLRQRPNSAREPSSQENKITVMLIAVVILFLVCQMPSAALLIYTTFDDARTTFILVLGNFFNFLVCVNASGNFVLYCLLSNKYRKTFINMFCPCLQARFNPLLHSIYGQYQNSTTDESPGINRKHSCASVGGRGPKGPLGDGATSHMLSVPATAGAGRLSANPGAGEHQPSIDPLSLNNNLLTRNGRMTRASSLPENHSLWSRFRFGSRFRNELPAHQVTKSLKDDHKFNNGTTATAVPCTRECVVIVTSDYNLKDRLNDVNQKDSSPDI

What follows are molecules tested against Varroa mite proctolin receptor (VdProctR) (Varroa destructor, UniProt A0A7T1TE40) (assay: Receptor activity assay (aequorin luminescence), CHO cells transiently expressing the receptor, first set of ligands). Conditions: EC50 relative to proctolin, first set (transient expression).
Format: cell-based
Description: Cells were transiently transfected with pcDNA3.1 + containing the open reading frame of Varroa mite proctolin receptor (VdProctR) or empty vector using TransIT®-2020 (Mirus Bio). Approximately thirty hours after transfection, the cells were collected and preincubated with coelenterazine h for the functional assay, as previously described[30],[31],[52]. The ligands in serial dilutions were loaded into 96-well opaque plates. Cells treated with coelenterazine h were injected into each well on an Orion microplate luminometer (Berthold) luminescent plate reader. The luminescence was measured for 20 s immediately after the cell injections. Data analyses were performed to determine the accumulated luminescence value for 20 s after extraction of blank-well luminescence. A dose–response curve was generated and the EC50 (50% effective concentration) was calculated in Origin 7 (OriginLab) as described in Jiang et al.[31],[53]. The three biological replications were regressed for the dose–response curves with 95% confidence intervals (Table 1). For the tests of the second set of ligands, we used the cell line that stably expressed VdProctR, which were selected by Zeocin for 5 passages.
Work on `CC(C)C[C@H](NC(=O)[C@H](Cc1ccc(O)cc1)NC(=O)[C@H](C)N)C(=O)N1CCC[C@H]1C(=O)N[C@H](C(=O)O)[C@@H](C)O` [Analog A1, AYLPT] yielded a Fold change of 3921.7.
`CC(C)C[C@H](NC(=O)[C@H](C)NC(=O)[C@@H](N)CCCNC(=N)N)C(=O)N1CCC[C@H]1C(=O)N[C@H](C(=O)O)[C@@H](C)O` [Analog A2, RALPT] gave a Fold change of 6724.1.
`C[C@H](NC(=O)[C@H](Cc1ccc(O)cc1)NC(=O)[C@@H](N)CCCNC(=N)N)C(=O)N1CCC[C@H]1C(=O)N[C@H](C(=O)O)[C@@H](C)O` [Analog A3, RYAPT] showed a Fold change of 380.0.
With `CC(C)C[C@H](NC(=O)[C@H](Cc1ccc(O)cc1)NC(=O)[C@@H](N)CCCNC(=N)N)C(=O)N[C@@H](C)C(=O)N[C@H](C(=O)O)[C@@H](C)O` [Analog A4, RYLAT] the Fold change was 22.1.
`CC(C)C[C@H](NC(=O)[C@H](Cc1ccc(O)cc1)NC(=O)[C@@H](N)CCCNC(=N)N)C(=O)N1CCC[C@H]1C(=O)N[C@@H](C)C(=O)O` [Analog A5, RYLPA] showed a Fold change of 172.3.

Same assay, conditions: activities at 1 μM and 10 μM
`CC(C)C[C@H](NC(=O)[C@H](Cc1ccc(O)cc1)NC(=O)[C@@H](N)CCCNC(=N)N)C(=O)N[C@@H](C)C(=O)N[C@H](C(=O)O)[C@@H](C)O` [Analog A4, RYLAT] was tested, and the “efficacy (maximal response) compared with proctolin” value was “higher than that of proctolin”.
